Earlier results on one substance are cited in article PMC4791210 (International immunopharmacology, 2015).

The data set concerns the target FPR1 (Homo sapiens) (UniProt P21462). In words: radioligand binding. As to conditions: cited from earlier work.

With CHIPS (from UniProt Q2FFF7), the Kd is 35 nM.
